Reference: patent EP0888303B1, “SYNTHETIC DERIVATIVES OF RAPAMYCIN AS MULTIMERIZING AGENTS FOR CHIMERIC PROTEINS WITH IMMUNOPHILIN-DERIVED DOMAINS” (ARIAD Pharmaceuticals, Inc, priority 1996, dated 1997)
pIC50: −log10 of the molar value. Where two headings read alike, the source gives them in different places.

By UniProt entry, the sequences of proteins in these tests, tags left out. Where a name states a change or a piece, a line headed by the entry shows the natural chain unless it says otherwise. Residues count along the entry.
UniProt P62942, whole entry, looked up, stated change not applied: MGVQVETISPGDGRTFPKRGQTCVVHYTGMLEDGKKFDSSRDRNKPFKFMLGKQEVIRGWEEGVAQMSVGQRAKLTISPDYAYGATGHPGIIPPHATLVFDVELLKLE
UniProt P62942, 2-108 F37L limits assumed: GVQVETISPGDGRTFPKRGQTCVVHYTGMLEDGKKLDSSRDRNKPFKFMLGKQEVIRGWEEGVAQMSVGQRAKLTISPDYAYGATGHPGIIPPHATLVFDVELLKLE
UniProt P62942, 2-108 limits assumed: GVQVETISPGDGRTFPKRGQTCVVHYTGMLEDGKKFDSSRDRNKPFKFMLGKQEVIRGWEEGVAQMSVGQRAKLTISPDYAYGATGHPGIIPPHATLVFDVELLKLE

How the values were obtained:
Test in all cases: Competitive Binding FP Assay
F36A mutant FKBP = F36A mutant FKBP (UniProt P62942); set-up: species or system human; conditions: read-out: F36A IC50; Synthetic Monomers table; normalized to value of FK506 run in the same experiment
F36M mutant FKBP = F36M mutant FKBP (UniProt P62942); set-up: species or system human; conditions: read-out: F36M IC50; Synthetic Monomers table; normalized to value of FK506 run in the same experiment
mutant (F36V) FKBP = mutant (F36V) FKBP (UniProt P62942); set-up: species or system human
F36I mutant FKBP = F36I mutant FKBP (UniProt P62942); set-up: species or system human; conditions: read-out: F36I IC50; Synthetic Monomers table; normalized to value of FK506 run in the same experiment
F36L mutant FKBP = F36L mutant FKBP (Homo sapiens, UniProt P62942, F37L)
wild-type human FKBP12 = wild-type human FKBP12 (Homo sapiens, UniProt P62942)
[1] = read-out: F36V IC50, Synthetic Monomers table, normalized to value of FK506 run in the same experiment
[2] = read-out: F36L IC50, Synthetic Monomers table, normalized to value of FK506 run in the same experiment
[3] = read-out: wild-type IC50, Synthetic Monomers table, normalized to value of FK506 run in the same experiment
[4] = read-out: FKBPF36V binding affinity IC50, Synthetic Multimerizers table, monomer value in brackets, mean of duplicates, normalized to FK506 = […] (substituted phenyl/lower aliphatic series: to AP1903 values)
[5] = read-out: FKBPF36L binding affinity IC50
[6] = read-out: FKBPwt binding affinity IC50

Row | SMILES | pIC50 (F36A mutant FKBP) | pIC50 (F36M mutant FKBP) | pIC50 (mutant (F36V) FKBP; [1]) | pIC50 (F36I mutant FKBP) | pIC50 (F36L mutant FKBP; [2]) | pIC50 (wild-type human FKBP12; [3]) | pIC50 (mutant (F36V) FKBP; [4]) | pIC50 (F36L mutant FKBP; [5]) | pIC50 (wild-type human FKBP12; [6]) | pIC50 (F36L mutant FKBP; read-out: F36L IC50, tested form: HCl)
1 | COc1ccc(CC[C@@H](OC(=O)[C@@H]2CCCCN2C(=O)C(C)C)c2cccc(OCC(=O)O)c2)cc1OC | 5.57 | 5.53 | 6.15 | 5.94 | 5.75 | 4.92 | – | – | – | –
2 | CC[C@@H](C(=O)N1CCCC[C@H]1C(=O)O[C@H](CCc1ccc(OC)c(OC)c1)c1cccc(OCC(=O)O)c1)c1cc(OC)c(OC)c(OC)c1 | 6.37 | 6.37 | – | – | 6.67 | < 4.00 | – | – | – | –
3 | CCC(CC)NC(=O)N1CCCC[C@H]1C(=O)O[C@H](CCN1CCOCC1)c1cccc(OCC(=O)O)c1 | 5.45 | 5.91 | 5.76 | 5.47 | 5.82 | – | 5.76 | 5.82 | – | –
4 | COc1ccc(CC[C@@H](OC(=O)[C@@H]2CCCCN2C(=O)NC2CCCCC2)c2cccc(OCC(=O)O)c2)cc1OC | 6.31 | 6.78 | 6.77 | 6.82 | 6.92 | 5.58 | – | – | – | –
5 | COc1ccc(CC[C@@H](OC(=O)[C@@H]2CCCCN2C(=O)C2CCCCC2C)c2cccc(OCC(=O)O)c2)cc1OC (some centres unmarked) | 6.85 | 6.64 | 7.10 | 7.07 | 7.28 | < 5.00 | – | – | – | –
6 | CCCC(CCC)C(=O)N1CCCC[C@H]1C(=O)O[C@H](CCc1ccc(OC)c(OC)c1)c1cccc(OCC(=O)O)c1 | 6.68 | 6.44 | 7.11 | 6.51 | 6.57 | < 4.00 | – | – | – | –
7 | COc1ccc(CC[C@@H](OC(=O)[C@@H]2CCCCN2C(=O)[C@H](CC2CC2)c2cc(OC)c(OC)c(OC)c2)c2cccc(OCC(=O)O)c2)cc1OC | – | – | – | – | 6.40 | – | – | – | – | –
8 | CC[C@H](C(=O)N1CCCC[C@H]1C(=O)O[C@H](CCc1ccc(OC)c(OC)c1)c1cccc(OCC(=O)O)c1)c1ccccc1 | 7.18 | 6.91 | – | 7.03 | 7.29 | 4.24 | 7.65 | – | < 4.00 | –
9 | COc1ccc(CC[C@@H](OC(=O)[C@@H]2CCCCN2C(=O)N[C@H](C)c2ccccc2)c2cccc(OCC(=O)O)c2)cc1OC | 6.39 | 6.66 | 6.42 | 6.43 | 6.90 | 5.38 | – | – | – | –
10 | COc1ccc(CC[C@@H](OC(=O)[C@@H]2CCCCN2C(=O)C(=O)c2ccccc2)c2cccc(OCC(=O)O)c2)cc1OC | 4.87 | 6.21 | 6.41 | 5.41 | 6.43 | 5.85 | – | – | – | –
11 | CCC(C(=O)N1CCCC[C@H]1C(=O)O[C@H](CCc1ccc(OC)c(OC)c1)c1cccc(OCC(=O)O)c1)c1cc(OC)c(OC)c(OC)c1 (some centres unmarked) | 7.47 | 7.54 | 8.15 | 8.00 | 8.14 | 5.32 | 8.32 | – | – | –
12 | CCC(C(=O)N1CCCC[C@H]1C(=O)O[C@H](CCc1ccc(OC)c(OC)c1)c1cccc(OCC(=O)O)c1)c1cccc(OC)c1 (some centres unmarked) | 6.98 | 6.92 | 7.43 | 7.36 | 7.15 | 3.94 | – | – | – | –
13 | COc1ccc(CC[C@@H](OC(=O)[C@@H]2CCCCN2C(=O)c2sccc2C)c2cccc(OCC(=O)O)c2)cc1OC | 5.24 | 5.23 | 5.52 | 5.26 | 5.79 | < 4.00 | – | – | – | –
14 | CCC(C(=O)N1CCCC[C@H]1C(=O)O[C@H](CCc1ccc(OC)c(OC)c1)c1cccc(OCC(=O)O)c1)c1ccc(OC)cc1 (some centres unmarked) | 6.89 | 6.81 | 7.38 | 7.04 | 7.16 | 3.82 | – | – | – | –
15 | COc1ccc(CC[C@@H](OC(=O)[C@@H]2CCCCN2C(=O)[C@@H](c2cc(OC)c(OC)c(OC)c2)C(C)C)c2cccc(OCC(=O)O)c2)cc1OC | 6.92 | 7.34 | – | 6.97 | 7.13 | < 4.00 | – | – | – | –
16 | CC[C@H](C(=O)N1CCCC[C@H]1C(=O)O[C@H](CCc1cccnc1)c1cccc(OCC(=O)O)c1)c1cc(OC)c(OC)c(OC)c1 | – | – | – | – | – | – | – | – | – | 7.49
17 | CCC(CC)NC(=O)N1CCCC[C@H]1C(=O)O[C@H](CCc1ccc(OC)c(OC)c1)c1cccc(OCC(=O)O)c1 | 6.97 | 7.18 | – | 6.86 | 7.35 | 4.85 | – | 7.35 | 4.85 | –
18 | COc1ccc(CC[C@@H](OC(=O)[C@@H]2CCCCN2C(=O)C(=O)c2cc(OC)c(OC)c(OC)c2)c2cccc(OCC(=O)O)c2)cc1OC | 5.86 | 6.88 | 6.97 | 6.98 | 6.84 | – | – | – | – | –
19 | CCC[C@@H](C(=O)N1CCCC[C@H]1C(=O)O[C@H](CCc1ccc(OC)c(OC)c1)c1cccc(OCC(=O)O)c1)c1cc(OC)c(OC)c(OC)c1 | 7.08 | 7.14 | – | 7.12 | 6.84 | – | – | – | – | –
20 | C=CC[C@H](C(=O)N1CCCC[C@H]1C(=O)O[C@H](CCc1ccc(OC)c(OC)c1)c1cccc(OCC(=O)O)c1)c1cc(OC)c(OC)c(OC)c1 | 8.09 | 8.43 | 8.82 | 8.52 | 8.33 | 5.44 | 8.82 | – | 5.44 | –
21 | CC[C@H](C(=O)N1CCCC[C@H]1C(=O)O[C@H](CCc1ccc(OC)c(OC)c1)c1cccc(OCC(=O)NCC(O)CNC(=O)COc2cccc([C@@H](CCc3ccc(OC)c(OC)c3)OC(=O)[C@@H]3CCCCN3C(=O)[C@@H](CC)c3cc(OC)c(OC)c(OC)c3)c2)c1)c1cc(OC)c(OC)c(OC)c1 | – | – | – | – | – | – | 8.37 | 7.96 | – | –
22 | CCC(CC)C(=O)N1CCCC[C@H]1C(=O)O[C@H](CCc1ccc(OC)c(OC)c1)c1cccc(OCC(=O)O)c1 | 6.62 | 6.11 | 6.99 | 6.54 | 6.54 | < 4.00 | 7.12 | – | < 4.00 | –
23 | CC[C@@H](C(=O)N1CCCC[C@H]1C(=O)O[C@H](CCc1ccc(OC)c(OC)c1)c1cccc(OCC(=O)O)c1)c1ccc(Cl)cc1 | 6.48 | 6.74 | 6.65 | 6.53 | 6.36 | 4.30 | – | – | – | –
24 | COc1ccc(CC[C@@H](OC(=O)[C@@H]2CCCCN2C(=O)[C@H](c2cc(OC)c(OC)c(OC)c2)C(C)C)c2cccc(OCC(=O)O)c2)cc1OC | 7.80 | 8.00 | – | 8.00 | 8.21 | 5.31 | – | 8.21 | 5.31 | –
25 | CCC[C@H](C(=O)N1CCCC[C@H]1C(=O)O[C@H](CCc1ccc(OC)c(OC)c1)c1cccc(OCC(=O)O)c1)c1cc(OC)c(OC)c(OC)c1 | 8.04 | – | – | 8.25 | 8.14 | 5.30 | – | – | – | –
26 | C=CC[C@@H](C(=O)N1CCCC[C@H]1C(=O)O[C@H](CCc1ccc(OC)c(OC)c1)c1cccc(OCC(=O)O)c1)c1cc(OC)c(OC)c(OC)c1 | 7.24 | 7.38 | – | 7.62 | 7.24 | – | – | – | – | –
27 | COc1ccc(CC[C@@H](OC(=O)[C@@H]2CCCCN2C(=O)[C@@H](CC2CC2)c2cc(OC)c(OC)c(OC)c2)c2cccc(OCC(=O)O)c2)cc1OC | – | – | – | – | 7.85 | 5.07 | – | – | – | –
